According to PubChem BioAssay (NCI):
The list shows a part of the results, in another mix than the full data.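 Step 1: grow cells in 96-well plates. Step 2: add test compound at a single concentration. Step 3: incubate 48 h. Step 4: record percent growth.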 Activity calls are given as the source filed them. Rule for the calls: active = growth percent below 10; inactive = the rest.

Experiments:
Assay in all cases: NCI-60 one-dose screen, 48 h (100 = growth as untreated, 0 = no growth, -100 = all killed)
Settings in all cases: 10 µM unless noted
MOLT-4 leukemia = test system: MOLT-4 leukemia
SR leukemia = test system: SR leukemia
RPMI-8226 leukemia = test system: RPMI-8226 leukemia
OVCAR-8 ovarian = test system: OVCAR-8 ovarian
OVCAR-5 ovarian = test system: OVCAR-5 ovarian
OVCAR-4 ovarian = test system: OVCAR-4 ovarian
SK-OV-3 ovarian = test system: SK-OV-3 ovarian
IGROV1 ovarian = test system: IGROV1 ovarian
OVCAR-3 ovarian = test system: OVCAR-3 ovarian
NCI/ADR-RES ovarian = test system: NCI/ADR-RES ovarian
T-47D breast = test system: T-47D breast
BT-549 breast = test system: BT-549 breast
MDA-MB-435 melanoma = test system: MDA-MB-435 melanoma
SW-620 colon = test system: SW-620 colon
MCF7 breast = test system: MCF7 breast
HCT-116 colon = test system: HCT-116 colon
HCC-2998 colon = test system: HCC-2998 colon
KM12 colon = test system: KM12 colon
HS 578T breast = test system: HS 578T breast

O=[As](O)(O)c1ccc(I)cc1
growth (MOLT-4 leukemia): inactive: 99.2%
growth (SR leukemia): inactive: 103%
growth (RPMI-8226 leukemia): inactive: 99.6%
growth (OVCAR-8 ovarian): inactive: 98.1%
growth (OVCAR-5 ovarian): inactive: 106%
growth (OVCAR-4 ovarian): inactive: 106%
growth (SK-OV-3 ovarian): inactive: 99.9%
growth (IGROV1 ovarian): inactive: 108%
growth (OVCAR-3 ovarian): inactive: 108%
growth (NCI/ADR-RES ovarian): inactive: 110%
growth (T-47D breast): inactive: 104%
growth (BT-549 breast): inactive: 95.6%
growth (MDA-MB-435 melanoma): inactive: 105%
growth (SW-620 colon): inactive: 104%
growth (MCF7 breast): inactive: 90.5%
growth (HCT-116 colon): inactive: 105%
growth (HCC-2998 colon): inactive: 118%
growth (KM12 colon): inactive: 104%

CCCNC(=O)c1ccc(N(CCCl)CCCl)cc1
growth (MOLT-4 leukemia): inactive: 107%
growth (SR leukemia): inactive: 108%
growth (RPMI-8226 leukemia): inactive: 94.7%
growth (OVCAR-8 ovarian): inactive: 92.4%
growth (OVCAR-5 ovarian): inactive: 104%
growth (OVCAR-4 ovarian): inactive: 100%
growth (SK-OV-3 ovarian): inactive: 91.1%
growth (IGROV1 ovarian): inactive: 105%
growth (OVCAR-3 ovarian): inactive: 108%
growth (NCI/ADR-RES ovarian): inactive: 92.6%
growth (T-47D breast): inactive: 89.4%
growth (BT-549 breast): inactive: 97.6%
growth (MDA-MB-435 melanoma): inactive: 110%
growth (SW-620 colon): inactive: 91.1%
growth (MCF7 breast): inactive: 82.6%
growth (HCT-116 colon): inactive: 106%
growth (HCC-2998 colon): inactive: 106%
growth (KM12 colon): inactive: 110%

Cc1ccc(Sc2ccc([N+](=O)[O-])cc2[N+](=O)[O-])c([N+](=O)[O-])c1
growth (MOLT-4 leukemia): inactive: 11.4%
growth (SR leukemia): active: 7.73%
growth (RPMI-8226 leukemia): active: 4.19%
growth (OVCAR-8 ovarian): inactive: 47.4%
growth (OVCAR-5 ovarian): inactive: 17.6%
growth (OVCAR-4 ovarian): inactive: 42.9%
growth (SK-OV-3 ovarian): active: 8.15%
growth (IGROV1 ovarian): inactive: 46.6%
growth (OVCAR-3 ovarian): active: 6.72%
growth (HS 578T breast): inactive: 22.4%
growth (NCI/ADR-RES ovarian): active: 4.11%
growth (T-47D breast): inactive: 58.7%
growth (BT-549 breast): active: -23.6%
growth (MDA-MB-435 melanoma): active: 1.07%
growth (MCF7 breast): inactive: 16.1%
growth (HCT-116 colon): active: -13.9%
growth (HCC-2998 colon): active: -12.5%
growth (KM12 colon): inactive: 13.9%

ClP1Nc2cncnc2N1 (stereo not drawn)
growth (MOLT-4 leukemia): inactive: 110%
growth (SR leukemia): inactive: 90.2%
growth (RPMI-8226 leukemia): inactive: 112%
growth (OVCAR-8 ovarian): inactive: 114%
growth (OVCAR-5 ovarian): inactive: 112%
growth (OVCAR-4 ovarian): inactive: 108%
growth (SK-OV-3 ovarian): inactive: 112%
growth (IGROV1 ovarian): inactive: 104%
growth (OVCAR-3 ovarian): inactive: 113%
growth (HS 578T breast): inactive: 114%
growth (NCI/ADR-RES ovarian): inactive: 115%
growth (T-47D breast): inactive: 105%
growth (BT-549 breast): inactive: 116%
growth (MDA-MB-435 melanoma): inactive: 109%
growth (SW-620 colon): inactive: 123%
growth (MCF7 breast): inactive: 102%
growth (HCT-116 colon): inactive: 120%
growth (KM12 colon): inactive: 98.4%

O=[N+]([O-])c1ccc(Oc2cccc(Oc3ccc([N+](=O)[O-])cc3[N+](=O)[O-])c2)c([N+](=O)[O-])c1
growth (MOLT-4 leukemia): inactive: 52.4%
growth (SR leukemia): active: -21.4%
growth (RPMI-8226 leukemia): inactive: 74%
growth (OVCAR-8 ovarian): inactive: 81.8%
growth (OVCAR-5 ovarian): inactive: 114%
growth (OVCAR-4 ovarian): inactive: 65.7%
growth (SK-OV-3 ovarian): inactive: 95.5%
growth (IGROV1 ovarian): inactive: 90.9%
growth (OVCAR-3 ovarian): inactive: 86.1%
growth (HS 578T breast): inactive: 85.4%
growth (NCI/ADR-RES ovarian): inactive: 77.5%
growth (MDA-MB-435 melanoma): inactive: 72.5%
growth (SW-620 colon): inactive: 53%
growth (MCF7 breast): inactive: 74.7%
growth (HCT-116 colon): inactive: 62.9%
growth (HCC-2998 colon): inactive: 112%
growth (KM12 colon): inactive: 88.2%

CC(Cc1ccccc1)N(CCCl)Cc1ccccc1 (stereo not drawn)
growth (MOLT-4 leukemia): inactive: 98.9%
growth (SR leukemia): inactive: 87.4%
growth (RPMI-8226 leukemia): inactive: 92.3%
growth (OVCAR-8 ovarian): inactive: 95.4%
growth (OVCAR-5 ovarian): inactive: 95%
growth (OVCAR-4 ovarian): inactive: 109%
growth (SK-OV-3 ovarian): inactive: 105%
growth (IGROV1 ovarian): inactive: 101%
growth (OVCAR-3 ovarian): inactive: 98.7%
growth (HS 578T breast): inactive: 102%
growth (NCI/ADR-RES ovarian): inactive: 103%
growth (T-47D breast): inactive: 86.2%
growth (BT-549 breast): inactive: 100%
growth (MDA-MB-435 melanoma): inactive: 108%
growth (SW-620 colon): inactive: 101%
growth (MCF7 breast): inactive: 97.2%
growth (HCT-116 colon): inactive: 92%
growth (HCC-2998 colon): inactive: 99.9%
growth (KM12 colon): inactive: 102%

CCOP(=O)(Nc1ccc(C)cn1)OCC
growth (MOLT-4 leukemia): inactive: 77.9%
growth (SR leukemia): inactive: 106%
growth (RPMI-8226 leukemia): inactive: 117%
growth (OVCAR-8 ovarian): inactive: 109%
growth (OVCAR-5 ovarian): inactive: 100%
growth (OVCAR-4 ovarian): inactive: 96.2%
growth (SK-OV-3 ovarian): inactive: 107%
growth (IGROV1 ovarian): inactive: 104%
growth (OVCAR-3 ovarian): inactive: 126%
growth (HS 578T breast): inactive: 98%
growth (NCI/ADR-RES ovarian): inactive: 109%
growth (T-47D breast): inactive: 99.9%
growth (BT-549 breast): inactive: 117%
growth (MDA-MB-435 melanoma): inactive: 107%
growth (SW-620 colon): inactive: 102%
growth (MCF7 breast): inactive: 88.6%
growth (HCT-116 colon): inactive: 86.6%
growth (KM12 colon): inactive: 102%

CSc1ccc(Nc2c([N+](=O)[O-])cc([N+](=O)[O-])cc2[N+](=O)[O-])cc1
growth (MOLT-4 leukemia): inactive: 54.8%
growth (SR leukemia): inactive: 16.9%
growth (RPMI-8226 leukemia): active: -7.99%
growth (OVCAR-8 ovarian): inactive: 40.9%
growth (OVCAR-5 ovarian): inactive: 66.8%
growth (OVCAR-4 ovarian): inactive: 31%
growth (SK-OV-3 ovarian): inactive: 83.4%
growth (IGROV1 ovarian): inactive: 28.9%
growth (OVCAR-3 ovarian): active: -13.8%
growth (HS 578T breast): inactive: 74.7%
growth (NCI/ADR-RES ovarian): inactive: 41.3%
growth (BT-549 breast): inactive: 80.9%
growth (MDA-MB-435 melanoma): inactive: 87.8%
growth (SW-620 colon): inactive: 44.7%
growth (MCF7 breast): inactive: 32.7%
growth (HCT-116 colon): inactive: 51%
growth (HCC-2998 colon): inactive: 78.9%
growth (KM12 colon): inactive: 61.5%

CCc1cc(O)c([N+](=O)[O-])c(C)c1[N+](=O)[O-]
growth (MOLT-4 leukemia): inactive: 105%
growth (SR leukemia): inactive: 129%
growth (RPMI-8226 leukemia): inactive: 101%
growth (OVCAR-8 ovarian): inactive: 98.5%
growth (OVCAR-5 ovarian): inactive: 104%
growth (OVCAR-4 ovarian): inactive: 123%
growth (SK-OV-3 ovarian): inactive: 108%
growth (IGROV1 ovarian): inactive: 103%
growth (OVCAR-3 ovarian): inactive: 116%
growth (HS 578T breast): inactive: 106%
growth (NCI/ADR-RES ovarian): inactive: 105%
growth (T-47D breast): inactive: 118%
growth (BT-549 breast): inactive: 112%
growth (MDA-MB-435 melanoma): inactive: 112%
growth (SW-620 colon): inactive: 100%
growth (MCF7 breast): inactive: 113%
growth (HCT-116 colon): inactive: 104%
growth (HCC-2998 colon): inactive: 108%
growth (KM12 colon): inactive: 98.9%
